This note sets out measurements from PubChem BioAssay (NCI).

Where “and” joins values, the source holds several entries; their conditions need not be identical. Equal values may be shown once. This is a selection; strong and weak results do not stand in their true shares.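 Testing used 96-well plates and a 48-hour single-concentration exposure. Example: -40 means 40% of the starting cells died.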 Calls of active or inactive are those of the source. The calls were made as follows: active = growth percent below 10; inactive = the rest.

Test systems include SK-MEL-2 melanoma; EKVX NSCLC; SN12C renal; UO-31 renal; TK-10 renal; ACHN renal; CAKI-1 renal; HL-60(TB) leukemia; CCRF-CEM leukemia; MOLT-4 leukemia; SR leukemia; RPMI-8226 leukemia; OVCAR-8 ovarian; OVCAR-5 ovarian; OVCAR-4 ovarian; IGROV1 ovarian; OVCAR-3 ovarian; HS 578T breast; A498 renal; SK-OV-3 ovarian.
What all share (assay): NCI-60 one-dose screen, 48 h (100 = growth as untreated, 0 = no growth, -100 = all killed)
Common to all, as to settings: 10 µM

As to `O=c1[nH]cc(CN(CCCl)CCCl)c(=O)[nH]1`, the growth in the assay with SK-MEL-2 melanoma was inactive: 101%; in the assay on EKVX NSCLC, inactive: 96.1%; with SN12C renal, inactive: 96.2%; with UO-31 renal it was inactive: 86.5%; with TK-10 renal it was inactive: 98.2%; in the assay on ACHN renal, inactive: 93.2%. The growth in the assay with CAKI-1 renal was inactive: 91.9%; in the assay on HL-60(TB) leukemia, inactive: 96.2%; with CCRF-CEM leukemia, inactive: 109%; in the assay with MOLT-4 leukemia, inactive: 101%; in the assay on SR leukemia, inactive: 101%; in the assay on RPMI-8226 leukemia, inactive: 103%. For the same compound, the growth with OVCAR-8 ovarian is inactive: 101%; in the assay on OVCAR-5 ovarian it was inactive: 99.3%; in the assay with OVCAR-4 ovarian it was inactive: 107%; with IGROV1 ovarian, inactive: 101%; in the assay with OVCAR-3 ovarian, inactive: 111%; in the assay with HS 578T breast, inactive: 105%.
As to `Cc1ccc(N(CCCl)CCCl)cc1`, the growth with SK-MEL-2 melanoma is inactive: 131%; in the assay on EKVX NSCLC it was inactive: 96.4%; in the assay with SN12C renal it was inactive: 46%; in the assay with UO-31 renal it was inactive: 39.3%; in the assay on TK-10 renal it was inactive: 90.6%; in the assay with ACHN renal, inactive: 19.1%. The growth in the assay on A498 renal was inactive: 104%; with HL-60(TB) leukemia, inactive: 31%; in the assay on CCRF-CEM leukemia it was inactive: 40.6%; in the assay on MOLT-4 leukemia, inactive: 32.2%; in the assay on SR leukemia, inactive: 14.9%; in the assay with RPMI-8226 leukemia, inactive: 89.9%. Further, the growth with OVCAR-8 ovarian is inactive: 76.5%; in the assay with OVCAR-5 ovarian, inactive: 107%; with OVCAR-4 ovarian, inactive: 85.8%; in the assay with SK-OV-3 ovarian, inactive: 76.6%; in the assay on IGROV1 ovarian, inactive: 82.3%; in the assay with OVCAR-3 ovarian, inactive: 104%.
As for `Cc1cccc(CN(CCCl)CCCl)c1`, the growth in the assay on SK-MEL-2 melanoma is inactive: 104%; in the assay with EKVX NSCLC it was inactive: 98.7%; with SN12C renal, inactive: 85.9%; in the assay with UO-31 renal, inactive: 78.1%; in the assay with TK-10 renal it was inactive: 93.4%; with ACHN renal it was inactive: 89.1%. For the same compound, the growth in the assay on HL-60(TB) leukemia was inactive: 78.7%; in the assay with CCRF-CEM leukemia it was inactive: 78.3%; with MOLT-4 leukemia it was inactive: 78.8%; in the assay on SR leukemia, inactive: 52.6%; in the assay with RPMI-8226 leukemia, inactive: 91.6%; in the assay on OVCAR-8 ovarian it was inactive: 88.2%. The growth is inactive: 102% in the assay with OVCAR-5 ovarian; inactive: 101% in the assay on OVCAR-4 ovarian; inactive: 93.8% with SK-OV-3 ovarian; inactive: 72.4% in the assay on IGROV1 ovarian; inactive: 83.1% in the assay on OVCAR-3 ovarian.
On to `Cc1ccc(CN(CCCl)CCCl)cc1C`, for which the growth with SK-MEL-2 melanoma was inactive: 95.7%; with SN12C renal it was inactive: 99.2%; with UO-31 renal, inactive: 76.2%; in the assay with TK-10 renal, inactive: 104%; in the assay on ACHN renal it was inactive: 91.2%; in the assay on CAKI-1 renal, inactive: 90.2%. Also, the growth was inactive: 99.7% with A498 renal; inactive: 78.2% in the assay on HL-60(TB) leukemia; inactive: 93.6% with MOLT-4 leukemia; inactive: 94.7% in the assay on SR leukemia; inactive: 99.8% in the assay with RPMI-8226 leukemia; inactive: 92.1% in the assay with OVCAR-8 ovarian. Moreover, the growth in the assay on OVCAR-5 ovarian is inactive: 99.9%; in the assay with OVCAR-4 ovarian, inactive: 107%; with SK-OV-3 ovarian, inactive: 103%; in the assay on IGROV1 ovarian it was inactive: 84.1%; with OVCAR-3 ovarian, inactive: 109%.
As for `NC(Cc1cccc(N(CCCl)CCCl)c1)C(=O)O` (stereo not drawn), the growth was inactive: 107% and inactive: 126% with SK-MEL-2 melanoma; inactive: 94% and inactive: 93.1% in the assay on SN12C renal; inactive: 91.8% and inactive: 88.1% with UO-31 renal; inactive: 109% and inactive: 143% in the assay with TK-10 renal; inactive: 102% and inactive: 100% in the assay with ACHN renal; inactive: 68.7% and inactive: 62.2% in the assay with CAKI-1 renal. Further, the growth was inactive: 103% and inactive: 110% in the assay on A498 renal; inactive: 83.2% and inactive: 80.8% in the assay with HL-60(TB) leukemia; inactive: 79.2% and inactive: 73.1% in the assay on MOLT-4 leukemia; inactive: 40.3% and inactive: 44% in the assay with SR leukemia; inactive: 93.4% and inactive: 91.7% in the assay on RPMI-8226 leukemia; inactive: 89.8% and inactive: 93.1% in the assay on OVCAR-8 ovarian. The growth in the assay on OVCAR-5 ovarian was inactive: 107% and inactive: 111%; in the assay on OVCAR-4 ovarian it was inactive: 103% and inactive: 110%; in the assay with SK-OV-3 ovarian, inactive: 95.8% and inactive: 103%; in the assay with IGROV1 ovarian, inactive: 92.5% and inactive: 84.2%; in the assay with OVCAR-3 ovarian it was inactive: 102% and inactive: 97.3%.
In the case of `CCOP(=O)(Cl)OCC`, the growth in the assay with SK-MEL-2 melanoma was inactive: 108%; with SN12C renal, inactive: 105%; in the assay on UO-31 renal, inactive: 86.7%; in the assay on TK-10 renal it was inactive: 102%; in the assay with ACHN renal it was inactive: 99%; in the assay on CAKI-1 renal it was inactive: 85.3%. The growth in the assay on A498 renal was inactive: 110%; with HL-60(TB) leukemia, inactive: 95.7%; with MOLT-4 leukemia, inactive: 98.9%; in the assay on SR leukemia, inactive: 88%; with RPMI-8226 leukemia it was inactive: 98.4%; with OVCAR-8 ovarian it was inactive: 98.1%. Also, the growth in the assay on OVCAR-5 ovarian was inactive: 99.3%; in the assay on OVCAR-4 ovarian, inactive: 104%; in the assay with SK-OV-3 ovarian, inactive: 104%; in the assay on IGROV1 ovarian, inactive: 87.5%; in the assay on OVCAR-3 ovarian, inactive: 101%; in the assay on HS 578T breast, inactive: 102%.
As to `CCCSP(=O)(CCl)N(CCCl)CCCl` (stereo not drawn), the growth in the assay with SK-MEL-2 melanoma was inactive: 64.1%; with SN12C renal, inactive: 99.3%; in the assay with UO-31 renal, inactive: 76.3%; in the assay with TK-10 renal, inactive: 101%; with ACHN renal, inactive: 89.6%; in the assay with CAKI-1 renal it was inactive: 92.5%. Also, the growth in the assay with A498 renal was inactive: 100%; in the assay on HL-60(TB) leukemia, inactive: 101%; in the assay on MOLT-4 leukemia, inactive: 97%; with SR leukemia, inactive: 96%; in the assay with RPMI-8226 leukemia it was inactive: 93.4%; in the assay on OVCAR-8 ovarian, inactive: 91.1%. The growth is inactive: 99.5% in the assay on OVCAR-5 ovarian; inactive: 98.7% in the assay on OVCAR-4 ovarian; inactive: 105% with SK-OV-3 ovarian; inactive: 96.9% with IGROV1 ovarian; inactive: 102% in the assay on OVCAR-3 ovarian.
Turning to `CCOc1ccc(N(CCCl)CCCl)cc1`, the growth in the assay with SN12C renal was inactive: 36.8%; in the assay on UO-31 renal it was inactive: 52.2%; in the assay on TK-10 renal it was inactive: 92.5%; in the assay with CAKI-1 renal, active: -4.3%; with A498 renal it was inactive: 72.1%; with HL-60(TB) leukemia it was inactive: 25%. In addition, the growth was inactive: 20.4% with CCRF-CEM leukemia; inactive: 28.5% with MOLT-4 leukemia; active: 6.68% with SR leukemia; inactive: 76% in the assay with RPMI-8226 leukemia; inactive: 59.8% in the assay on OVCAR-8 ovarian; inactive: 94.9% in the assay on OVCAR-5 ovarian. For the same compound, the growth was inactive: 92.4% in the assay on OVCAR-4 ovarian; inactive: 77% in the assay with SK-OV-3 ovarian; inactive: 74.3% with IGROV1 ovarian; inactive: 91.1% with OVCAR-3 ovarian; inactive: 107% with HS 578T breast.
For the compound `COc1ccc(C(=O)O)cc1N(CCCl)CCCl`, the growth with SK-MEL-2 melanoma is inactive: 105%; in the assay on SN12C renal, inactive: 98.4%; in the assay on UO-31 renal it was inactive: 80.6%; with TK-10 renal, inactive: 91%; in the assay with ACHN renal, inactive: 103%; in the assay on CAKI-1 renal it was inactive: 76.3%. Moreover, the growth in the assay with A498 renal is inactive: 102%; in the assay with HL-60(TB) leukemia, inactive: 87.2%; with CCRF-CEM leukemia, inactive: 73.3%; in the assay on MOLT-4 leukemia, inactive: 79.5%; with SR leukemia, inactive: 66.9%; with RPMI-8226 leukemia, inactive: 95.7%. Besides, the growth in the assay on OVCAR-8 ovarian is inactive: 97.1%; with OVCAR-5 ovarian, inactive: 99%; with OVCAR-4 ovarian it was inactive: 109%; with SK-OV-3 ovarian, inactive: 97.7%; in the assay with IGROV1 ovarian it was inactive: 73.2%; in the assay with OVCAR-3 ovarian, inactive: 106%. In addition, the growth with HS 578T breast is inactive: 105%.
